# Assay results taken from ChEMBL document CHEMBL1141296, “Brunneins A-C, beta-carboline alkaloids from Cortinarius brunneus” (J Nat Prod, 2007).
# Target: T1, Acetylcholinesterase (Bos taurus, UniProt P23795)
# T1 sequence (P23795 whole entry): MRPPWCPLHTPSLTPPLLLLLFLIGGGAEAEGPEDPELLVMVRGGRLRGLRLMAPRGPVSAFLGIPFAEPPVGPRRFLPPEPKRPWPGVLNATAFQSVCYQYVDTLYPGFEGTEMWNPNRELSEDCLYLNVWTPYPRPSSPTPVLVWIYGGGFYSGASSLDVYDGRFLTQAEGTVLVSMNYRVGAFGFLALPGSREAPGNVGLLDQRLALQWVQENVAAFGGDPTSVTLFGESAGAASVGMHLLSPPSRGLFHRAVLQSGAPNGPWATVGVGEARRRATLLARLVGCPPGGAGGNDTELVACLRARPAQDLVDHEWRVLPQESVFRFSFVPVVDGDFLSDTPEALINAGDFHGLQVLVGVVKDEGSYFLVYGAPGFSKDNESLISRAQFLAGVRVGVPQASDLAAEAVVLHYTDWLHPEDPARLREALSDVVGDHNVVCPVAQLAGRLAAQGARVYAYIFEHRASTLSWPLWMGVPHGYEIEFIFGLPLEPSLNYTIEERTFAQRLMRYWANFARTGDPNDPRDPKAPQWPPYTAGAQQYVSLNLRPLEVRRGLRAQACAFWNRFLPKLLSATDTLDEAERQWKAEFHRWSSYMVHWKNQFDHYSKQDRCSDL
# Experiment: Inhibition of bovine AChE at 100 uM by Ellman's method
smiles,measurement,value
CNC(=O)Oc1ccc2c(c1)[C@]1(C)CCN(C)[C@@H]1N2C,IC50,63.3 µM
